Results from ChEMBL document CHEMBL5360540, “Antitumor effect of 3-(quinolin-2-ylmethylene)-4,6-dimethyl-5-hydroxy-7-azaoxindole down-regulating the Gas6-Axl axis” (Eur J Med Chem, 2023).

What was measured:
[1] = tested on: T1, Tyrosine-protein kinase receptor UFO (Homo sapiens), P30530 [R499C]; experiment: Inhibition of human AXL R499C mutant using MEK1 as substrate at 1 uM incubated for 40 mins by gamma33P-ATP based scintillation counter analysis relative to control
T1 sequence (whole entry): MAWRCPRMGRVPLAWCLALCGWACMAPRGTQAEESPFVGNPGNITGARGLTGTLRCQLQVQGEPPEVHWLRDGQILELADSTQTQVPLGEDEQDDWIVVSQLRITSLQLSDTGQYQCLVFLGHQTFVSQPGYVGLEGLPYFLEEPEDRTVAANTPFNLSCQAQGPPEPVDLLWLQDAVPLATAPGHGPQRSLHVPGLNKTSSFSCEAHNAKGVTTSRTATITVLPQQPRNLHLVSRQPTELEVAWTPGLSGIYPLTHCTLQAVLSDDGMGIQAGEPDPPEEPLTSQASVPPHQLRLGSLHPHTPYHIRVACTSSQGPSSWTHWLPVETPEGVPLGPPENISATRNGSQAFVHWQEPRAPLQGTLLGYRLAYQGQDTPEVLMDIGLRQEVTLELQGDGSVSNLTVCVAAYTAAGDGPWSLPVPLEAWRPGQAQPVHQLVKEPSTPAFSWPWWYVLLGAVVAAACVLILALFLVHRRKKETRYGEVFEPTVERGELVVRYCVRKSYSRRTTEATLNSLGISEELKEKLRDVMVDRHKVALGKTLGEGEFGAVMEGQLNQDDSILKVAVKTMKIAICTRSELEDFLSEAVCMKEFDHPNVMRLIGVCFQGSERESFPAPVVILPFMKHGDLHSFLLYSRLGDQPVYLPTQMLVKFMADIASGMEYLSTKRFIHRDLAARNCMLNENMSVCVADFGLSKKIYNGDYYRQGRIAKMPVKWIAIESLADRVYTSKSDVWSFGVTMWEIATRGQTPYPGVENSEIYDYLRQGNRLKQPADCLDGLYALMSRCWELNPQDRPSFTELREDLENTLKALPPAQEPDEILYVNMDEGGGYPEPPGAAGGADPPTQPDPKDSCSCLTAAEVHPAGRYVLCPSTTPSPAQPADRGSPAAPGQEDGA

[2] = tested on: T1, Tyrosine-protein kinase receptor UFO (Homo sapiens), P30530 [R499C]; experiment: Inhibition of human AXL R499C mutant using MEK1 as substrate at 10 uM incubated for 40 mins by gamma33P-ATP based scintillation counter analysis relative to control

Structure (SMILES): Cc1nc2c(c(C)c1O)/C(=C/c1ccc3ccccc3n1)C(=O)N2
- inhibition [1]: 1.2%
- inhibition [2]: 8.3%
